Values joined by “and” are separate entries in the source; they are usually repeats but may differ in a detail not shown here. Equal entries are not always repeated.

Protein sequences, listed by entry. Tags and fused reporters are not part of them. Residues count along the entry.
UniProt P07711, 114-333 limits assumed: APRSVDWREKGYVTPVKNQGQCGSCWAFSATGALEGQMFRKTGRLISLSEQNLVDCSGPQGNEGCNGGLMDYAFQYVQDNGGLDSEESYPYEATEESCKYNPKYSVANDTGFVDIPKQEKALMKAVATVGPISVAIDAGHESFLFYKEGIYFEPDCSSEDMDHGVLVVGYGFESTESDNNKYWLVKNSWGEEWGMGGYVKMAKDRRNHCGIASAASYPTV

For this experiment, the target named is human cathepsin L (Homo sapiens (Human), UniProt P07711). As to the kind of experiment: Human cathepsin L inhibition, Z-FR-AMC assay. It counts as biochemical. The settings on record: read-out: Ki* hCatL; pH 5.5, 25° C. As for the experimental part:
Recombinant human cathepsins B and L were purchased from Millipore Sigma and used without further treatment. The solid proteins were dissolved into a solution of 50 mM sodium acetate (pH 5.5), 1 mM EDTA, 1 mM CHAPS, 10% (v/v) DMSO, and 5 mM DTT to final concentrations of […] in 20-mL aliquots, and stored at −80° C. until needed. These samples were then diluted into the same buffer to concentrations of −100 nM, and these dilutions were stored at 4° C. and used daily until depletion.
For assays of cathepsin L and B, inhibitors were evaluated in 0.25-mL reaction mixtures containing a buffer of sodium acetate (pH 5.5), 1 mM CHAPS, 1 mM Na2EDTA, and 5 mM DTT at 25° C. The fluorogenic substrate Cbz-Phe-Arg-7-amino-4-methyl-coumarin (Z-FR-AMC) was dissolved in 100% DMSO, as were all inhibitors, and aliquots of both substrates and inhibitors were added to reaction mixtures to final concentrations of DMSO of 10% (v/v). […] Formation of the fluorescent product AMC was monitored over 30-60-minute time courses for reaction mixtures in 96-well black microplates (Corning Costar®). Rates of peptidolysis of the dipeptide-AMC substrate(s) were measured on either a SpectraMax M5 (Molecular Devices) or a Synergy HTX (Biotek, Wisnooki, VT) microplate reader with λex=360 nm, λem=460 nm in ≥8-sec intervals. Control samples excluded substrate. The measured relative fluorescence units (RFUs) of generated AMC were converted to reaction rates of μM/s by use of a standard curve of known AMC concentrations obtained for both plate readers.
In general, Ki refers to a measure of affinity in units of concentration, obtained from inhibition or displacement. For the compound `CN1CCN(C(=O)N[C@@H](Cc2ccccc2)C(=O)N[C@H](C=O)Cc2ccc[nH]c2=O)CC1`, the Ki turned out to be 2 nM.

Take `CC(C)[C@H](NC(=O)OCc1ccccc1)C(=O)N[C@@H](CC1CCCCC1)C(=O)N[C@H](C=O)Cc1ccc[nH]c1=O`: the Ki was 59 nM and 50 nM.

As for `CC(=O)N[C@H](C(=O)N[C@@H](CC1CCCCC1)C(=O)N[C@H](C=O)Cc1ccc[nH]c1=O)C(C)C`, the Ki came out at 140 nM.
